The source of these data is article PMC9253268 (Frontiers in Immunology, 2022).

The data set in a line: Chemical profiling of BHGZD in sera (UFLC-Q-TOF-MS/MS). The note with it: 30 min after the treatment of BHGZD.

In the case of isoliquiritin apioside, the “quantitative detection in sera after the treatment of BHGZD” value is on record as “detected”.
